High-throughput results deposited in PubChem by National Center for Advancing Translational Sciences (NCATS).
The list is not random: actives were taken first. Their share in the collection is about 2.3%.
A549 viability: counter-screen for Nrf2 inhibitors: cytotoxicity in A549 cells | Potency, µM (titrated, usually from 46 µM), usual class: inhibitors | AID 504648 | 0.16% of 390,000 active | A549 ARE-Fluc cells, CellTiter-Fluor viability, 18-24 h
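Cytotoxicity counterscreen: CellTiter-Fluor fluorescence was measured in A549 ARE_Fluc cells after 18-24 h of compound exposure in a concentration series. The subsequent BugLite luminescent read reports ARE-luciferase activity.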
Nrf2 inh: Nrf2 pathway inhibition; A549 ARE-Fluc reporter, luciferase luminescence, 18-24 h; Potency, µM (series often up to 46 µM), actives largely listed as inhibitors; 2.1% of 360,000 active; AID 504444; further: nearly all actives have a fitted effect of over 60% in size
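In this cell-based qHTS, ARE-driven firefly luciferase in A549 cells reports Nrf2 activity; the luminescent signal after BugLite lysis is the measured value, with a prior CellTiter-Fluor read for cell health.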
Mito fusion yeast: mitochondrial division inhibition or fusion activation; 0.23% of 320,000 active; Potency, µM (series often up to 46.1 µM), actives largely listed as activators; S. cerevisiae fusion-defective mutant growth rescue, CellTiterGlo 48 h; further: nearly all actives have a fitted effect of over 45% in size
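Growth-rescue viability read-out: after 48 h at the non-permissive 37C in glycerol/ethanol YPEG, yeast mitochondrial fusion mutants are measured by CellTiterGlo luminescence; compounds (23 nl pinned per well) restoring growth score as division inhibitors or fusion activators.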
miR-21 FLuc: miR-21 reporter, rising signal | AID 2288 | HeLa miR-21 FLuc reporter, luciferase, 48 h | 340,000 tested, under 10 active | Potency, µM (titrated, usually from 38.3 µM); active = well fitted rising curve with a large enough effect; inconclusive = small, poorly fitted or top-dose-only effect; inactive = no such curve, though single readings can be large or run the other way;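 also: miR-21 action dims this reporter so a rising signal means less miR-21 action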
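Using DMEM plus 10% FBS, HeLa miR-21-FLuc cells are incubated with test compounds (final up to about 40uM) for 48 hours; firefly luciferase signal is then imaged following reagent-mediated lysis.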
Glioma ERSR ind: induces the endoplasmic reticulum stress response in human glioma cells | U87-MG GRP78 promoter luciferase reporter, 16 h | Potency, µM, actives largely listed as activators | 0.02% of 420,000 active | AID 602332; further: series mostly up to about 76 µM; nearly all actives have a fitted effect of over 35% in size
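Stably transfected U87-MG human glioma cells carrying a GRP78-based luminescent sensor were seeded at 1000 cells/well, pin-dosed with compounds and incubated 16 h. Luciferase reagent was then added, and end-point luminescence was read after 10 min at room temperature.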
Nrf2 activator: Nrf2 pathway activation; 0.31% of 410,000 active; AREc32 ARE-luciferase reporter (MCF7-derived line), luminescence, 24 h; Potency, µM (doses to about 46.1 µM), actives largely listed as activators; further: nearly all actives have a fitted effect of over 65% in size
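Each well held 1000 AREc32 cells, which were incubated with compound for 24 hr at 37 deg C after overnight attachment, and ARE reporter activity was quantified by firefly luciferase luminescence.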
Each line names hits and unclear results; the compound was inactive in the other large screens. Unless noted, the call rests on the fitted dose curve; in most records, active means well fitted curve in the direction sought with a large enough effect; inconclusive means small, poorly fitted or top-dose-only effect, or another doubt; inactive means no such curve, though single readings can be large; an effect the other way counts as inactive or inconclusive.

C(=N\Nc1nc2ccccc2[nH]1)/c1ccc2c(c1)OCCO2	A549 viability inconclusive, Nrf2 inh 2.6µM
COc1ccc(/C=N/Nc2nc3ccccc3[nH]2)cc1OC	none
CCN(CC)c1ccc(/C=N/Nc2nc3ccccc3[nH]2)c(O)c1	A549 viability inconclusive, Nrf2 inh 26µM, miR-21 FLuc inconclusive
C(=N\Nc1ccc2ccccc2n1)/c1ccc2c(c1)OCCO2	Nrf2 inh inconclusive, miR-21 FLuc inconclusive
COc1cc(/C=N\Nc2nc3ccccc3[nH]2)cc(OC)c1OC	Nrf2 inh 5.8µM
COc1ccc(/C=N/NC(N)=S)cc1OC(=O)c1ccccc1	none
O=C(Cn1c(=O)nc(-c2ccccc2)c2cc(Cl)ccc21)Nc1ccc(F)c(Cl)c1	none (no result: Mito fusion yeast)
CCOC(=O)c1c(C)oc2c1c(C=NCCC(=O)O)c(O)c1ccccc12	A549 viability inconclusive, Nrf2 inh 21µM
CCOC(=O)c1c(C)oc2c1c(C=NC1CCS(=O)(=O)C1)c(O)c1ccccc12 (stereo not drawn)	none
O=C(Nc1cc(Cl)ccc1O)C1CC(c2ccccc2O)=NO1 (stereo not drawn)	none
NC(=O)c1cc2ccccc2o/c1=N\NC(=O)c1ccccc1O	Nrf2 inh 8.2µM
NC(=O)c1cc2ccccc2o/c1=N\NC(=O)c1ccc(F)cc1	Nrf2 inh inconclusive, Nrf2 activator inconclusive
COc1cccc(C(=O)Nc2cc(-c3cn4cccnc4n3)ccc2C)c1OC	none (no result: Nrf2 inh, Mito fusion yeast)
COc1ccccc1C(=O)NC(=S)Nc1ccc(N2CCN(C(=O)c3ccco3)CC2)cc1	Nrf2 inh 21µM
O=C(Nc1ccc(N2CCN(C(=O)c3ccco3)CC2)cc1)c1ccco1	none
Cc1ccccc1C(=O)N1CCN(c2ccc(NC(=S)NC(=O)c3ccco3)cc2)CC1	Nrf2 inh inconclusive
O=C(Nc1ccc(N2CCN(C(=O)c3ccco3)CC2)cc1)c1ccc(Br)cc1	Nrf2 inh 16µM
O=C(Nc1ccc(N2CCN(C(=O)c3ccco3)CC2)cc1)c1cc(Br)ccc1Cl	Nrf2 inh 23µM, Mito fusion yeast inconclusive (no result: miR-21 FLuc)
CSC1=NSC2=NC(=O)/C(=C/c3coc4ccccc4c3=O)C(=N)N12	none
N=C1/C(=C\c2coc3ccccc3c2=O)C(=O)N=C2SC=CN12	Nrf2 activator 18µM
Cc1ccc(NC(=O)Cc2nc(-c3c[nH]c(C(=O)N4CCCC4)c3)cs2)c(C)c1	Nrf2 inh 21µM (no result: miR-21 FLuc)
COc1cc(Cl)c(C)cc1NC(=O)c1nn(C)c2c1CSc1ccccc1-2	none (no result: Mito fusion yeast)
Cc1ncc(C(O)c2ccc(N(C)C)cc2)n1Cc1ccccc1 (stereo not drawn)	none (no result: A549 viability, Nrf2 inh, Mito fusion yeast, miR-21 FLuc)
CN(C)c1ccc2nc3c(=O)[nH]c(=O)nc-3n(CC(O)C(O)C(O)CO)c2c1 (stereo not drawn)	A549 viability 10µM, Nrf2 inh inconclusive
CC(NC(=O)Cn1c(NCCO)nc2ccccc21)C1CC2CCC1C2 (stereo not drawn)	none
Cc1nc2ccccc2n1CC(=O)NC(C)C1CC2CCC1C2 (stereo not drawn)	Nrf2 inh 5.2µM
Cc1cc(C(=O)N2CCCC(C(=O)c3cccc(C(F)(F)F)c3)C2)n[nH]1 (stereo not drawn)	Nrf2 inh 18µM
O=C(c1cccc(C(F)(F)F)c1)C1CCCN(C(=O)c2cc(C3CC3)[nH]n2)C1 (stereo not drawn)	Nrf2 inh inconclusive
COC(=O)[C@@]1(Cc2ccccc2)[C@H]2C(=O)N(Cc3ccccc3)C(=O)[C@H]2[C@H]2CN=C(SCc3ccccc3)N21	none (no result: Mito fusion yeast, miR-21 FLuc)
CC1CCCN(S(=O)(=O)c2ccc([N+](=O)[O-])cc2)C1 (stereo not drawn)	A549 viability inconclusive
CC1CC(C)CN(S(=O)(=O)c2ccc(Oc3ccc([N+](=O)[O-])cc3)cc2)C1 (stereo not drawn)	Nrf2 inh 23µM
O=C(/C=C/c1ccc(O)c(O)c1)O[C@H]1C[C@@](O)(C(=O)O)CC(O)C1O (stereo partly drawn)	none (no result: A549 viability, Nrf2 inh, Mito fusion yeast, miR-21 FLuc, Nrf2 activator)
CC(=O)CCC1C2C(O)C(C(C)C)C(OC(=O)/C=C/c3ccccc3)CC12C (stereo not drawn)	Nrf2 inh inconclusive, Mito fusion yeast 3.5µM
COc1ccccc1C(=O)Nc1ccccc1C(=O)N1CCCC1	none (no result: Nrf2 inh)
Nc1cc(C(F)(F)F)ccc1NCCc1ccccn1	Nrf2 activator 13µM
c1ccc(NCCc2ccccn2)cc1	Nrf2 inh inconclusive (no result: Mito fusion yeast, miR-21 FLuc)
COC(=O)N1CCCc2cc(S(=O)(=O)N3CCN(c4ccccc4)CC3)ccc21	none (no result: Mito fusion yeast)
O=C(CC(Sc1ccccc1)c1cccs1)c1ccco1 (stereo not drawn)	Nrf2 activator 18µM
Cc1ccccc1C(=O)NNC(=O)Cc1cccc2ccccc12	none
Cc1cc(-c2sccc2C)nc(-n2cccc2)n1	Nrf2 activator 5.6µM
CC(OC(=O)C1CC(=O)N(Cc2ccco2)C1)C(=O)Nc1ccc(F)cc1Cl (stereo not drawn)	none (no result: miR-21 FLuc)
Cc1cc(C)cc(NS(=O)(=O)c2ccc3[nH]cc(C(=O)NC4CCCCC4)c(=O)c3c2)c1	Nrf2 inh 23µM, miR-21 FLuc inconclusive (no result: Mito fusion yeast)
Cc1cc(C)cc(NS(=O)(=O)c2ccc3[nH]cc(C(=O)NCc4ccccc4Cl)c(=O)c3c2)c1	none (no result: Nrf2 inh, Mito fusion yeast)
Cc1cc(C)cc(NS(=O)(=O)c2ccc3[nH]cc(C(=O)NCc4ccco4)c(=O)c3c2)c1	Nrf2 inh 16µM, miR-21 FLuc inconclusive
CC(C)c1ccc(NS(=O)(=O)c2ccc3[nH]cc(C(=O)NC4CCCCC4)c(=O)c3c2)cc1	none (no result: Mito fusion yeast)
O=C(O)c1ccc(CN(Cc2ccccc2)S(=O)(=O)c2ccc(Cl)cc2)cc1	none
Cc1nc2ccccc2n1CCOc1ccc(F)cc1	Nrf2 inh 21µM
O=C1CSC(=S)N1c1cccnc1	none
O=C1CSC(=S)N1Cc1cccnc1	A549 viability inconclusive, miR-21 FLuc inconclusive, Nrf2 activator 8.9µM
COc1ccc(NC(=O)Cc2ccccc2)cn1	none
COc1ccc(NC(=O)/C(Cl)=C(/Cl)S(=O)Cc2ccccc2)cn1 (stereo not drawn)	A549 viability 21µM, miR-21 FLuc inconclusive
COc1ccc(CS(=O)(=O)/C(Cl)=C(/Cl)C(=O)Nc2ccc(OC)nc2)cc1	A549 viability 21µM, Nrf2 inh 16µM, miR-21 FLuc inconclusive, Nrf2 activator inconclusive
CCc1ccc([C@H]2[C@@H]3C(=O)C[C@@H]4C(=O)N(CC)C(=O)[C@@H]4[C@@H]3CN2S(=O)(=O)c2ccc(C)cc2)cc1	none (no result: A549 viability, Nrf2 inh, Mito fusion yeast, miR-21 FLuc)
COc1cccc(NC(=O)CN(Cc2ccccc2)S(=O)(=O)c2ccc3nc(C)sc3c2)c1	Nrf2 inh inconclusive (no result: Mito fusion yeast)
